The source of these data is PMC2821871 (Biochemistry, 2010).

The assay concerns the target LA3 of LDLR (human, UniProt P01130 109-147).

A word on the Kd: it is the concentration at which binding is half-saturated. Read a low Kd as higher affinity. The molecule TEELRVRLASHLRKLRKRLL [Ub-ApoE(130-149)] gave a Kd of more than 5 mM.
